## Binding of CDR-mutated scFvs to a peptide of the spike HR2 region

Data: MIT Lincoln Laboratory AlphaSeq set, Engelhart et al. 2022, doi:10.1038/s41597-022-01779-4, as distributed in FLAb.

Target: peptide PDVDLGDISGINAS, taken from heptad repeat 2 (HR2) of SARS-CoV-2 spike.

Ab-91 is the parent antibody, in scFv form: VL, then three GGGGS repeats, then VH. The light chain is unchanged in all variants.
VL: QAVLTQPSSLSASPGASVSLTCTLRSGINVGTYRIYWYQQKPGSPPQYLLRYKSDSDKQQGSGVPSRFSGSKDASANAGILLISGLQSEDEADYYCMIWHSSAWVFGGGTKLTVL
VH: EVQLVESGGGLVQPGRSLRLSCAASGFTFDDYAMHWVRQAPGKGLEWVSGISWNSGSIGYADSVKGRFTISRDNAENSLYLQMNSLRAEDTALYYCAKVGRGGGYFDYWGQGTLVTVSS

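The parent was found by panning a naive human phage display library on the peptide. AAYL51 was designed without a model: most single CDR substitutions and a random sample of double and triple ones. In AlphaSeq, yeast of one mating type display the scFv and yeast of the other type display the target. After mating in shaken culture at 30 °C for 16 h, diploids were selected and their barcode pairs sequenced. Each replicate has its own calibration line, from reference interactions of the BCL2 family. Each pool was mated in three replicate cultures.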

Each variant is given by its three heavy chain CDRs, as the data file delimits them; those of the parent are GFTFDDYAMH, GISWNSGSIGYADSVK, VGRGGGYFDY. All variants listed here change G104 of the VH, counted from its first residue. Values are apparent Kd, the geometric mean of the replicates that gave a signal; lower means stronger binding. "nd" marks a missing value. The strain was present, yet no cells mated with the target were sequenced in any replicate, which points to weak or no binding. Background: pairings of library AAYL51 with three empty control strains gave a value in 21% of cases (median 34 µM, 5th percentile 1.8 µM). Values in that range, when seen in few replicates, are hard to tell from nonspecific mating. In this assay the parent's reference entry averaged 72 nM; its copy inside this library read 7.5 nM.

* GFTFDDYTMT / GISWNSGSIGYADSVK / VGRGGSYFDY = nd (0 of 3 replicates)
* GFTFDDYAMH / GISWNSGSIGYADSVK / VGSGGKYFDC = 6.5 nM (3 of 3 replicates)
* GFTFDDYAMH / GISWNSGSIGYADSVK / VGRGGQYADY = 3.1 µM (2 of 3 replicates)
* GFTFLDYAMH / GNSWNSGSIGYADSVK / VGRGGPYFDY = 100 µM (2 of 3 replicates)
* GFTFDDYAMH / GISWNSGPIGYADSVK / HGRGGQYFDY = 140 µM (2 of 3 replicates)
* GFTFMDYAMH / GISWNSGSIVYADSVK / VGRGGLYFDY = 2.6 mM (1 of 3 replicates)
* GFTFDDYAMH / GISWNSGSIGYEDSVK / VGRNGNYFDY = nd (0 of 3 replicates)
* GFTFDDYAMH / GKSWNSGSIGYADSVK / VGRYGFYFDY = 12 µM (1 of 3 replicates)
* GFTFDDYAMH / GISWNSGSIGYADSVK / VGDGGMYFDY = 220 µM (2 of 3 replicates)
* GFTFDDYAPH / GISWNSCSIGYADSVK / VGRGGTYFDY = nd (0 of 3 replicates)
* GFTFDDYAMH / GISWNSGSIGYLDSVT / VGRGGPYFDY = 510 µM (1 of 3 replicates)
* GFTFDDYAMH / GISWVSGSGGYADSVK / VGRGGKYFDY = nd (0 of 3 replicates)
* GFTFDDYAMH / GISWNSGSIGYADSVK / PGRGGWYFDY = nd (0 of 3 replicates)
* GFTFDDYAMH / GISWNSGSIGYSDSVK / VGRGGHYHDY = 3.6 nM (3 of 3 replicates)
* VFTFDDYAMH / GISWNSGSIGYADSLK / VGRGGHYFDY = nd (0 of 3 replicates)
* GFTFDDYAMH / GISWCSGSIGYADSVK / VGRGGMYYDY = 20 µM (2 of 3 replicates)
* GFTFDDYAMH / GISPNSGSIGYADSVK / VGRGIFYFDY = 2.0 nM (3 of 3 replicates)
* GFTFDQCAMH / GISWNSGSIGYADSVK / VGRGGWYFDY = 13 µM (1 of 3 replicates)
* GFTFDLYAMH / GISWNSGSIGYADSVK / RGRGGKYFDY = 1.9 nM (3 of 3 replicates)
* GETFDDYAMH / GISWNSGSIGYADSVK / VGRGGPKFDY = nd (0 of 3 replicates)
* GFTFDDYAMG / GISWNSGSIGYADSVV / VGRGGHYFDY = nd (0 of 3 replicates)
* GFTFDDYAMH / GISWNSGSIGYADSVK / VGEGGLEFDY = 2.9 µM (1 of 3 replicates)
* GFCFDDYAMH / GISWNSGSIGYADSLK / VGRGGMYFDY = nd (0 of 3 replicates)
* GFTFDDYAMH / GISWASGSIFYADSVK / VGRGGRYFDY = 22 µM (1 of 3 replicates)
* GFLFDDYAMH / GHSWNSGSIGYADSVK / VGRGGKYFDY = 440 µM (1 of 3 replicates)
* GFTFDDYAMH / WISWNSGSIGYADSVW / VGRGGYYFDY = 5.8 µM (1 of 3 replicates)
* GFTTDDYAMH / GISWNSSSIGYADSVK / VGRGGHYFDY = nd (0 of 3 replicates)
* GFTFTDYAKH / GISWNSGSIGYADSVK / VGRGGRYFDY = nd (0 of 3 replicates)
* GFTFDDYAMH / GISWNSGSIYYADSVK / VGRGGPQFDY = nd (0 of 3 replicates)
* GFTFDDNAMH / GISWRSGSIGYADSVK / VGRGGDYFDY = 1.6 µM (1 of 3 replicates)
* GFTFDDYAMH / GISWNSGPIGYADSKK / VGRGGDYFDY = 17 µM (1 of 3 replicates)
* GFPFDDYAMH / GISWNSGSIDYADSVK / VGRGGYYFDY = 45 µM (2 of 3 replicates)
* GFTFDDYAMH / GASWNSGSIGYADSTK / VGRGGWYFDY = 33 µM (2 of 3 replicates)
* GFTFDDYAMH / GISWNSGVIGYADSVK / VGRGGWYFDY = 100 µM (1 of 3 replicates)
* GFTFDDYAGH / GISWNSGSIGYIDSVK / VGRGGLYFDY = 30 µM (2 of 3 replicates)
* GFYFDDYAMH / GISWNSGSIGYADSVK / VPRGGLYFDY = 73 µM (1 of 3 replicates)
* GFTFDDYAMH / GISWNSGSPGYADSVK / VGRGWEYFDY = 2.1 µM (1 of 3 replicates)
* GFTFDDYAMH / GISWNWGSIGYADTVK / VGRGGKYFDY = nd (0 of 3 replicates)
* GFTFDDMAMH / GISWNSGSIGYADSVK / VGRRGCYFDY = 90 nM (3 of 3 replicates)
* GFTFDDYAMH / GISVNSGSIGYADSVK / VGEGGCYFDY = nd (0 of 3 replicates)
* GFTFDDYAMH / GISWNSGRIMYADSVK / VGRGGLYFDY = 180 µM (3 of 3 replicates)
* GFTFDDYAMH / GQSWNSGSIGYADSVK / VGRGGCYWDY = 58 µM (3 of 3 replicates)
* KFTFDDYAMH / GISWNSGSIGYADPVK / VGRGGQYFDY = nd (0 of 3 replicates)

Repeated from above, the 4 best binders with a signal in all replicates:

- GFTFDLYAMH / GISWNSGSIGYADSVK / RGRGGKYFDY: 1.9 nM (3 of 3 replicates)
- GFTFDDYAMH / GISPNSGSIGYADSVK / VGRGIFYFDY: 2.0 nM (3 of 3 replicates)
- GFTFDDYAMH / GISWNSGSIGYSDSVK / VGRGGHYHDY: 3.6 nM (3 of 3 replicates)
- GFTFDDYAMH / GISWNSGSIGYADSVK / VGSGGKYFDC: 6.5 nM (3 of 3 replicates)